scFv variants of Ab-95 (light chain) against a SARS-CoV-2 spike peptide

Target: peptide PDVDLGDISGINAS, taken from heptad repeat 2 (HR2) of SARS-CoV-2 spike.

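Variants in AAYL52 differ from the parent at up to three CDR positions; double and triple changes were sampled at random. AlphaSeq pools MATa yeast showing the antibodies with MATalpha yeast showing the peptide. Pairs that bind mate more often; barcode pairs of the diploids are counted by sequencing. Each replicate has its own calibration line, from reference interactions of the BCL2 family. There are three technical replicates.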

Parent: Ab-95, a human scFv built as VH, the linker GGGGSGGGGSGGGGS, VL. Only the CDRs of the light chain vary.
VH: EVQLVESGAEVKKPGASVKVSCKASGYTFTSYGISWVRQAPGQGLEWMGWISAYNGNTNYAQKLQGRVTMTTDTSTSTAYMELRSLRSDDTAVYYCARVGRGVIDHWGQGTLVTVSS
VL: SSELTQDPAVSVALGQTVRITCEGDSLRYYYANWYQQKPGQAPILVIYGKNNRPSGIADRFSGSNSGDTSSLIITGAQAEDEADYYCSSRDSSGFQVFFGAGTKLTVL

Each variant is given by its three light chain CDRs, as the data file delimits them; those of the parent are EGDSLRYYYAN, GKNNRPS, SSRDSSGFQVF. Kd is apparent (estimated from mating counts) and averaged on the log scale over replicates with a signal. Smaller is tighter. "not detected" means that the variant was in the library but no mating with the target was seen in any replicate; the authors take this as a sign of poor binding, and no number exists. Background: pairings of library AAYL52 with three empty control strains gave a value in 28% of cases (median 8.2 µM, 5th percentile 800 nM). Values in that range, when seen in few replicates, are hard to tell from nonspecific mating. The control count says in how many pairings with the empty strains this scFv gave a signal. Parent in this assay: reference entry 200 nM, copy in this library 180 nM.

| # | CDR-L1 | CDR-L2 | CDR-L3 | apparent Kd | detected | empty controls |
|---|---|---|---|---|---|---|
| 1 | EGDSLRWYYAN | GKKNRPS | SSYDSSGFQVF | 21 µM | 2/3 | 0/9 |
| 2 | EGDSLRYYYAN | HKTNRPS | YSRDSSGFQVF | not detected | 0/3 | 1/9 |
| 3 | EGDSLEYNYAN | GKNNRPS | SSRDSSGAQVF | 12 nM | 3/3 | 7/9 |
| 4 | EGDSIRYYYAP | GKNNRPS | SSRDSSGFQVW | 29 µM | 2/3 | 6/9 |
| 5 | EGDSLRYYYAY | GKNNRPS | SSRDSSVFQVF | 50 µM | 1/3 | 2/9 |
| 6 | EIDSLRYYYAV | GKNNRNS | SSRDSSGFQVF | 1.1 µM | 3/3 | 4/9 |
| 7 | EGDSLRYYYAN | GKNNRPS | SMRDSSGFQIS | 17 µM | 3/3 | 1/9 |
| 8 | ECDSLRYHYAL | GKNNRPS | SSRDSSGFQVF | 1.4 µM | 3/3 | 3/9 |
| 9 | LGDSLRYYQAN | GKNKRPS | SSRDSSGFQVF | 340 nM | 3/3 | 5/9 |
| 10 | EGDSLIYYYNN | GKNNRPS | SSRDSSGFQKF | 2.6 µM | 2/3 | 3/9 |
| 11 | EGDSLGYYYQN | GKNLRPS | SSRDSSGFQVF | 4.4 µM | 3/3 | 3/9 |
| 12 | EGDWLRYYYAN | GKNRRPS | SSRDSSGNQVF | 5.1 µM | 3/3 | 5/9 |
| 13 | ESDSYRYYYAN | GKNNRPS | SSRVSSGFQVF | 7.8 µM | 1/3 | 3/9 |
| 14 | EGQSLRYYYAN | AKNNRPS | SSRDSSGQQVF | 3.4 µM | 3/3 | 3/9 |
| 15 | EGDSLRYYYAN | GQNNRPS | SSHDASGFQVF | 2.5 µM | 2/3 | 2/9 |
| 16 | EGDSLRYYYAN | WKANRPS | SSRDSSGFQEF | not detected | 0/3 | 1/9 |
| 17 | EGDSLRYYYAN | GKNNSPF | SSRDSSGFQVF | 1.1 µM | 3/3 | 2/9 |
| 18 | MGDSLRYYYAN | GKWNRPS | SSRDRSGFQVF | 28 µM | 2/3 | 2/9 |
| 19 | EGDPLRYYHAN | GKNNRPS | SSRGSSGFQVF | 2.2 µM | 3/3 | 2/9 |
| 20 | EGDSLRYYYAN | GKNNRCS | SSRDSSGFKDF | 390 nM | 1/3 | 0/9 |
| 21 | EGDVLRYYYAN | GKNNCPS | SSRDSSWFQVF | not detected | 0/3 | 0/9 |
| 22 | EGDSLRWYYAN | IKNNDPS | SSRDSSGFQVF | 19 µM | 3/3 | 1/9 |
| 23 | EGDILRYYYAN | AKANRPS | SSRDSSGFQVF | 16 µM | 1/3 | 1/9 |
| 24 | EGDSLRYYYAN | GKNNRPW | SSRASSGIQVF | 2.5 µM | 3/3 | 5/9 |
| 25 | EGDKLRYYYAK | GKNNRPS | SSRDSSGDQVF | 27 µM | 1/3 | 4/9 |
| 26 | EGDSLRYYVAN | GKNNRPS | SSDDSSTFQVF | 31 µM | 2/3 | 1/9 |
| 27 | EGWSLRYPIAN | GKNNRPS | SSRDSSGFQVF | 11 µM | 2/3 | 2/9 |
| 28 | EGDSLRYYYAW | GKNNRVS | SARDSSGFQVF | 5.3 µM | 1/3 | 0/9 |
| 29 | EGDSLRYYYAN | GKNNRPQ | SSRDVSGFQGF | 400 nM | 3/3 | 4/9 |
| 30 | TGDSLRYSYAV | GKNNRPS | SSRDSSGFQVF | 350 nM | 3/3 | 3/9 |
| 31 | EGDSLRYYYAW | GKNYRPS | SSRDSQGFQVF | 44 µM | 1/3 | 0/9 |
| 32 | GGDSLRYYYAN | GKNNLPS | ESRDSSGFQVF | 2.8 µM | 3/3 | 2/9 |
| 33 | EGDSLRYYYAN | GKNNRPS | SNRDSSGFQAF | 6.6 µM | 3/3 | 5/9 |
| 34 | EGDSLRYHYAN | GKNNRPS | ASRDSSAFQVF | 39 nM | 3/3 | 3/9 |
| 35 | EWDSLRYYYAN | GKNNRPS | SSRKSHGFQVF | not detected | 0/3 | 3/9 |
| 36 | EGDSLRYYYAN | GKNNRPS | SSRDSSCFQLR | 63 µM | 2/3 | 5/9 |
| 37 | EGDSLRYYYEN | GKNNRPS | SSRDISGFQVF | 20 nM | 3/3 | 5/9 |
| 38 | EGDSLRYYWAN | TKNNRPV | SSRDSSGFQVF | not detected | 0/3 | 0/9 |
| 39 | EGDSLRYYYAN | EKNNRPS | SSEDSSGFMVF | 1.4 µM | 3/3 | 0/9 |
| 40 | LGDSLRYYYAN | GKKNRPS | SSRDSLGFQVF | 40 µM | 1/3 | 2/9 |
| 41 | EGDWLRYYYAN | GKSNRPS | SHRDSSGFQVF | 6.5 µM | 2/3 | 4/9 |
| 42 | EGDSLRYYYAN | GKVNRPM | SSADSSGFQVF | 86 µM | 1/3 | 4/9 |
| 43 | EGYSLRYYAAN | GENNRPS | SSRDSSGFQVF | 9.5 nM | 3/3 | 1/9 |
| 44 | EGDSLRYYNAL | GKNNRPS | SWRDSSGFQVF | 150 nM | 3/3 | 6/9 |
| 45 | EGMSLRYYYAN | GKNNRPI | SSRDSHGFQVF | not detected | 0/3 | 3/9 |
| 46 | EGDSLRYYYAN | MTNNRWS | SSRDSSGFQVF | 110 µM | 2/3 | 2/9 |
| 47 | EGMSLRYYYAN | GKNNYPS | SSRDFSGFQVF | 230 µM | 1/3 | 3/9 |
| 48 | EGDSLRYYYAN | GKNVRPS | MSRDNSGFQVF | 78 nM | 3/3 | 3/9 |
| 49 | EGDSLRYYYAN | GKNNRPS | SRRDTSGFQVF | not detected | 0/3 | 1/9 |
| 50 | EGDSLRYYYAN | GRNNRPS | SSRDSSSFQTF | 700 nM | 3/3 | 5/9 |
| 51 | EGDHIRYYYAN | GKNVRPS | SSRDSSGFQVF | 1.8 µM | 2/3 | 2/9 |
| 52 | EGDWLRYYYAN | PKNNRPS | SSRDSQGFQVF | 66 µM | 1/3 | 3/9 |
| 53 | EHDSLNYYYAN | GKNNRPS | SSRMSSGFQVF | 900 nM | 3/3 | 3/9 |
| 54 | EVDSLRYYYAN | QKNNRPS | SSTDSSGFQVF | 1.5 µM | 1/3 | 1/9 |
| 55 | EGDSNRYYYAN | GENNRPS | SSRDSSGFEVF | not detected | 0/3 | 2/9 |
| 56 | EGDSLRYYYAN | PKNNRPD | SSRDSSGFQEF | 6.4 µM | 2/3 | 1/9 |
| 57 | EGDSCRYYYAN | GKNNRPW | SSRDLSGFQVF | 8.3 µM | 2/3 | 2/9 |
| 58 | EGDSLRKYEVN | GKNNRPS | SSRDSSGFQVF | 54 nM | 3/3 | 2/9 |
| 59 | EGDSLRAYYAN | GKWNRPQ | SSRDSSGFQVF | 2.6 µM | 2/3 | 3/9 |
| 60 | EGDSWRYYYAE | GKNNRPS | SSRLSSGFQVF | not detected | 0/3 | 0/9 |
| 61 | ERDSLRYYYAN | GNNNRPS | SSRASSGFQVF | 1.4 µM | 3/3 | 1/9 |
| 62 | EHDSLRYYYAN | GKNNRPS | SSLDPSGFQVF | not detected | 0/3 | 2/9 |
| 63 | EGDSLRYYNAN | GKNNRIA | SSRDSSGFQVF | 50 nM | 3/3 | 1/9 |
| 64 | LGDSLRKAYAN | GKNNRPS | SSRDSSGFQVF | 14 nM | 3/3 | 3/9 |
| 65 | PGPSLRYYYAN | GKNNRPS | SSRDSSPFQVF | not detected | 0/3 | 2/9 |
| 66 | EGDSIRYYYAN | GKNNRPS | SSRDNSGFKVF | 14 µM | 3/3 | 2/9 |
| 67 | EGDNLRSYYAN | GKNNRPS | SSRTSSGFQVF | 36 µM | 2/3 | 4/9 |
| 68 | EGDSLRYYLAN | GKDNRPS | SSRDSCGFQVF | 260 nM | 3/3 | 0/9 |
| 69 | EGDSWRYYYAN | GKNNRPS | SSRDISGFFVF | 10 µM | 1/3 | 2/9 |
| 70 | EGDSTRNYYAN | GKNNRPH | SSRDSSGFQVF | 2.9 µM | 3/3 | 1/9 |
| 71 | EGYSLRYYYAN | GKNNYPS | ESRDSSGFQVF | 36 µM | 1/3 | 1/9 |
| 72 | EGDSLREYYWN | GKNNRPS | SSRDSSRFQVF | 5.2 µM | 1/3 | 2/9 |
| 73 | EGDWLRYYYAN | GKNNRPS | SSRDSSGFQRF | 4.0 µM | 2/3 | 5/9 |
| 74 | EGDLLRYYYAN | GKNNRLS | SSRDSSPFQVF | 310 µM | 1/3 | 0/9 |

Source: Engelhart et al. 2022 (doi:10.1038/s41597-022-01779-4), MIT Lincoln Laboratory and A-Alpha Bio; data file from the FLAb repository.